Assay outcomes as filed in PubChem BioAssay.
A549 viability – counter-screen for Nrf2 inhibitors: cytotoxicity in A549 cells; A549 ARE-Fluc cells, CellTiter-Fluor viability, 18-24 h; Potency, µM (highest dose often 46 µM), inactives show at the top dose activity change, negative = cytotoxicity, usual class: inhibitors; actives 0.16% (n = 390,000); AID 504648; also: potency is read from the fitted curve at half-maximal effect; % is scaled to controls: 0 for no effect and ±100 for the full control effect
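Cytotoxicity counterscreen: CellTiter-Fluor fluorescence was measured in A549 ARE_Fluc cells after 18-24 h of compound exposure in a concentration series. The subsequent BugLite luminescent read reports ARE-luciferase activity.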
Nrf2 inh – Nrf2 pathway inhibition; actives 2.1% (n = 360,000); A549 ARE-Fluc reporter, luciferase luminescence, 18-24 h; Potency, µM (series often up to 46 µM), for inactives: at the highest dose activity change, negative = inhibition, actives largely listed as inhibitors; AID 504444; also: potency is read from the fitted curve at half-maximal effect; % is scaled to controls: 0 for no effect and ±100 for the full control effect; nearly all actives have a fitted effect of over 60% in size
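Quantitative HTS in A549 cells stably bearing an antioxidant response element-firefly luciferase construct. Inhibition of Nrf2-driven transcription was scored by luminescence after 18-24 h of compound exposure at 37 °C.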
ClpP mod – qHTS Assay for Activators of ClpP; Potency, µM (titrated, usually from 57.5 µM), for the others: top-dose activity change, negative = active; actives 1.9% (n = 340,000); AID 651965, 2013; purified B. subtilis ClpP, FRET peptide cleavage, 20 min; active = well fitted falling curve with a large enough effect; inconclusive = small, poorly fitted or top-dose-only effect; inactive = no such curve, though single readings can be large or run the other way; also: potency is read from the fitted curve at half-maximal effect; the source files actives as falling curves though it sought activators and does not explain the sign; nearly all actives have a fitted effect of over 65% in size
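ClpP 10 microg/mL final, pH 8 Tris/KCl buffer with BSA, glycerol, Tween-20; compound pinned in; FRET-FV substrate; RT 20 min; Ex320/Em430; ΔFRET vs ADEP 5.8 microM, DMSO, no enzyme.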
miR-21 reporter – miR-21 reporter, rising signal; HeLa miR-21 FLuc reporter, luciferase, 48 h; Potency, µM (highest dose often 38.3 µM), for the others: top-dose reporter change, positive = more light; 340,000 tested, under 10 active; AID 2288; active = well fitted rising curve with a large enough effect; inconclusive = small, poorly fitted or top-dose-only effect; inactive = no such curve, though single readings can be large or run the other way;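 further: % of control where 0% means no effect; miR-21 action dims this reporter so a rising signal means less miR-21 action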
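HeLa cells stably expressing CMV-driven firefly luciferase with a downstream miR-21 binding sequence, endogenously expressing miR-21, were treated with titrations (up to about 40uM final) for 48 hours at 37 degree Celsius. Luciferase luminescence was read after lysis.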
TCR activator – activators of T cell receptors; primary human leukocytes, anti-CD3, IL-2 HTRF, 48 h; Potency, µM (doses to about 9.22 µM), inactives show at the highest dose activation of IL-2 secretion, usual class: activators; 330,000 tested, under 10 active; AID 504894; also: % of control where 0% means no effect
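Primary human leukocytes were stimulated with a-CD3 beads plus compounds for 48 hr without co-stimulation; secreted IL-2 was quantified by HTRF using a-IL-2-K (europium cryptate) and a-IL-2-d2, excited at 320nm with acceptor emission read at 665nm.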
Nrf2 ARE act – activates Nrf2 signaling. AREc32 ARE-luciferase reporter (MCF7-derived line), luminescence, 24 h. actives 0.31% (n = 410,000). Potency, µM (series often up to 46.1 µM), inactives show at the top dose activation, usual class: activators; also: potency is read from the fitted curve at half-maximal effect; % of control where 0% means no effect; nearly all actives have a fitted effect of over 65% in size
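For detection, Steady-Glo was added and plates sat 30 min at RT; before that, AREc32_Fluc cells grown overnight in OPTI-MEM/5% FBS had been treated with 23 nL compound for 24 hr at 37 deg C.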
An asterisk follows results filed as active; ? = inconclusive; . = no result given; [ ] = remark or other dose. Most compounds without a hit are left out; they make up all but 3.7% or so of the library. Unless noted, calls follow the shape of the dose curve; as a rule, active = well fitted curve in the direction sought with a large enough effect; inconclusive = small, poorly fitted or top-dose-only effect, or another doubt; inactive = no such curve, though single readings can be large; an effect the other way counts as inactive or inconclusive.

| canonical_smiles | A549 viability | Nrf2 inh | ClpP mod | miR-21 reporter | TCR activator | Nrf2 ARE act |
| --- | --- | --- | --- | --- | --- | --- |
| O=C(C1CC(=O)N(c2ccc3c(c2)OCCO3)C1)N1CCN(S(=O)(=O)c2ccccc2F)CC1 (configuration not stated) | -9.7% | -22.8% | 1.3% | . | -2.1% | -0.6% |
| Nc1nc(COc2ccccc2C=O)nc(Nc2ccccc2)n1 | -1.0% | 14.6% | 25.1µM* | -5.2% | 13.1% | 3.2% |
| COc1cc(NC(=O)C2CCN(S(=O)(=O)c3ccc4c(c3)CCCC(=O)N4)CC2)cc(OC)c1 | 8.2% | -24.2% | -2.9% | 2.5% | . | -0.4% |
| O=C(CN1C(=O)NC2(CCCC2)C1=O)Nc1ccccc1C(F)(F)F | -8.8% | -1.3% | . | 0.4% | 1.4% | -0.7% |
| CCC(C)(C)C1CCC2(CC1)NC(=O)N(CC(=O)N(C)CC(=O)Nc1ccccc1C(F)(F)F)C2=O (configuration not stated) | -19.9% | 14.6µM* | 2.0% | -14.7% | 5.0% | -0.7% |
| COc1cc(-c2ccc3ncnc(NCCc4cnc[nH]4)c3c2)cc(OC)c1OC | 8.7% | ? | . | . | . | . |
| Nc1ccc(/C=C/c2ccnc3ccccc23)cc1[N+](=O)[O-] | . | . | -1.4% | . | . | . |
| CN(C(=O)c1cnccn1)c1c(N)n(Cc2ccccc2)c(=O)[nH]c1=O | -4.5% | 2.8% | 0.9% | . | 6.0% | -0.1% |
| COc1ccc(NC(=O)NN(C(=O)c2ccccc2)C(C)(C)C)cc1 | -5.6% | ? | 25.1µM* | 1.1% | 7.5%[46.1 µM] | -0.2% |
| N#Cc1ccc(OCC(=O)N2CCN(S(=O)(=O)c3ccc(Cl)s3)CC2)cc1 | -11.6% | 23.1µM* | -1.0% | . | -9.1% | -0.3% |
| O=c1c2ccccc2c(C=NCc2ccccn2)c(O)n1-c1ccccc1 | -8.6% | -3.8% | -14.4% | 3.3% | -2.9%[46.1 µM] | 1.7% |
| Cc1ccc(-n2c(O)c(C=NCc3ccccn3)c3ccccc3c2=O)cc1C | -14.9% | 10.3µM* | -7.9% | 6.9% | -7.3%[46.1 µM] | 9.6% |
| N#Cc1ccc(C23CC4CC(CC(C4)C2)C3)[nH]c1=O | -0.6% | -13.5% | 15.8µM* | 0.4% | 3.9% | 0.2% |
| Cc1[nH]c(=O)[nH]c(=O)c1S(=O)(=O)N1CCN(c2ccccc2Cl)CC1 | 13.1% | . | 0.1% | 2.0% | . | 0.4% |
| Cc1cccc(C(=O)Nc2ccc(-c3nc4ccccc4s3)cc2Cl)c1 | 4.8% | . | 25.1µM* | -0.5% | . | 3.8% |
| COc1cc(Cn2ncc3c4sc(C)cc4n(C)c3c2=O)cc(OC)c1 | -1.4% | 16.2% | . | . | . | . |
| Cc1ccc(C)c(N2CCN(C(=O)c3ccc(CS(=O)Cc4ccc(Cl)cc4)o3)CC2)c1 (configuration not stated) | ? | 20.6µM* | -3.8% | 12.5% | -3.1% | 0.2% |
| Cc1ccc(Cl)cc1N1CCN(C(=O)c2ccc(CS(=O)Cc3ccc(Cl)cc3)o2)CC1 (configuration not stated) | -8.4% | ? | -0.7% | 4.8% | 1.7% | -0.5% |
| Cc1ccc(S(=O)(=O)n2nc(C)c(S(=O)(=O)N3CCC(C)CC3)c2C)cc1 | 16.7% | . | 0.5% | 3.0% | . | -1.2% |
| Cc1ccc(C)c(OC(=O)C2CSC3(C)CCC(=O)N23)c1C (configuration not stated) | 2.8% | ? | -4.1% | . | -1.9% | 1.0% |
| O=S(=O)(NCC1CN(S(=O)(=O)c2c(F)cccc2F)C1)c1ccc2c(c1)OCCO2 | -12.0% | 11.6µM* | . | . | 8.5% | 2.3% |
| Cc1ccc(NC(=O)c2cc(=O)c3ccccc3o2)cc1S(=O)(=O)N1CCCCC1 | -19.8% | 16.4µM* | . | ? | -4.6% | 0.3% |
| Cc1ccc(NC(=O)Cn2cc(C(F)(F)F)cc(Cl)c2=O)cc1S(=O)(=O)N1CCCCC1 | -13.2% | 23.1µM* | -1.2% | . | -3.2% | 0.0% |
| Cc1ccc(NC(=O)c2cc(=O)c3ccccc3o2)cc1S(=O)(=O)N1CCOCC1 | 4.8% | ? | -0.2% | 11.2% | 5.4% | 8.9% |
| Cc1ccc(NC(=O)CSc2ncnc3ccccc23)cc1S(=O)(=O)N1CCOCC1 | -7.9% | 23.1µM* | . | 7.7% | 4.8% | 14.6% |

Structural class, the entries above with a thiophene ring, fused or not
| canonical_smiles | A549 viability | Nrf2 inh | ClpP mod | miR-21 reporter | TCR activator | Nrf2 ARE act |
| --- | --- | --- | --- | --- | --- | --- |
| N#Cc1ccc(OCC(=O)N2CCN(S(=O)(=O)c3ccc(Cl)s3)CC2)cc1 | -11.6% | 23.1µM* | -1.0% | . | -9.1% | -0.3% |
| COc1cc(Cn2ncc3c4sc(C)cc4n(C)c3c2=O)cc(OC)c1 | -1.4% | 16.2% | . | . | . | . |

The main list resumes with the two entries that preceded the break.
| canonical_smiles | A549 viability | Nrf2 inh | ClpP mod | miR-21 reporter | TCR activator | Nrf2 ARE act |
| --- | --- | --- | --- | --- | --- | --- |
| Cc1ccc(NC(=O)c2cc(=O)c3ccccc3o2)cc1S(=O)(=O)N1CCOCC1 | 4.8% | ? | -0.2% | 11.2% | 5.4% | 8.9% |
| Cc1ccc(NC(=O)CSc2ncnc3ccccc23)cc1S(=O)(=O)N1CCOCC1 | -7.9% | 23.1µM* | . | 7.7% | 4.8% | 14.6% |
| Cc1ccc(NC(=O)Cn2ncc(Cl)c(Cl)c2=O)cc1S(=O)(=O)N1CCCCC1 | -0.9% | -25.1% | -4.1% | . | 5.1% | ? |
| Cc1ccc(NC(=O)Cn2c(=O)cnc3ccccc32)cc1S(=O)(=O)N1CCCCC1 | -18.4% | 13µM* | -7.1% | . | 0.8% | -0.4% |
| Cc1ccc(N(C)S(=O)(=O)c2nnc(NC(=O)C3CCCCC3)s2)cc1 | 2.3% | ? | -3.6% | -45.2% | . | -0.8% |
| COc1cc(C(=O)NCC(c2cccs2)N2CCOCC2)cc(Br)c1OCc1ccccc1 (configuration not stated) | -13.4% | ? | -1.6% | . | 1.1% | 2.9% |
| NC(=O)c1nsc(C(=O)N(CC(=O)NC2CCCCC2)Cc2ccc3c(c2)OCO3)c1N | -8.4% | -8.2% | -18.2% | . | . | . |
| Cc1ccc(CN2CC(C(=O)Nc3ccc(C)c(S(=O)(=O)N4CCCCC4)c3)CC2=O)cc1 (configuration not stated) | ? | 20.6µM* | -2.6% | . | 16.4% | 0.1% |
| Cc1ccc(NC(=O)CSc2ncnc3ccccc23)cc1S(=O)(=O)N1CCCCC1 | ? | 14.6µM* | 0.9% | 10.6% | -3.1%[46.1 µM] | 12.3% |
| Cc1ccc(NC(=O)CSc2ccccc2)cc1S(=O)(=O)N1CCCCC1 | -8.9% | 23.1µM* | -2.2% | . | 4.1% | 0.0% |
| COc1cc(NC(=O)Cn2c(=O)cc(C)c3c(C)nn(-c4ccc(C)cc4)c32)cc(OC)c1 | -0.1% | ? | ? | 3.9% | . | -0.6% |
| COc1ccc(CCNC(=O)COc2ccc(S(=O)(=O)N3CCOCC3)cc2C)cc1 | -6.9% | ? | -0.5% | 13.5% | 4.9% | -0.9% |
| CCOC(=O)c1ccc(N2C(=O)c3n[nH]c(-c4ccco4)c3C2c2cccc(F)c2)cc1 (configuration not stated) | ? | 20.6µM* | -1.8% | ? | . | -3.2% |
| CCOC(=O)c1ccc(N2C(=O)c3n[nH]c(-c4ccco4)c3C2c2ccc(OCC)cc2)cc1 (configuration not stated) | ? | 18.4µM* | -11.0% | ? | . | -4.3% |
| Nc1c(C(=O)c2ccc(Br)s2)oc2ccccc12 | -1.8% | -31.9% | -4.0% | -29.1% | . | 3.16µM* |
| Nc1c(C(=O)c2cccs2)oc2ccccc12 | -27.3% | 8.9% | 0.0% | -34.2% | 4.6% | ? |
| O=C(C[N+]1(CCO)CCOCC1)c1cccc2ccccc12 | . | . | 0.0% | . | . | . |
| Cc1[nH]c2ccccc2c1C(=O)CN1C(=O)C(=O)N(Cc2ccco2)C1=O | -24.2% | ? | 28.2µM* | -15.1% | 2.3% | 0.6% |
